Data on two compounds can be found in US9145426B2, “Pyrrolidine-fused thiadiazine dioxide compounds as BACE inhibitors, compositions, and their use” (Merck Sharp & Dohme Corp., priority 2011, dated 2015).

Amino acid sequences for entries named in this document (tags omitted). Residues count along the entry.
UniProt P56817, 75-416: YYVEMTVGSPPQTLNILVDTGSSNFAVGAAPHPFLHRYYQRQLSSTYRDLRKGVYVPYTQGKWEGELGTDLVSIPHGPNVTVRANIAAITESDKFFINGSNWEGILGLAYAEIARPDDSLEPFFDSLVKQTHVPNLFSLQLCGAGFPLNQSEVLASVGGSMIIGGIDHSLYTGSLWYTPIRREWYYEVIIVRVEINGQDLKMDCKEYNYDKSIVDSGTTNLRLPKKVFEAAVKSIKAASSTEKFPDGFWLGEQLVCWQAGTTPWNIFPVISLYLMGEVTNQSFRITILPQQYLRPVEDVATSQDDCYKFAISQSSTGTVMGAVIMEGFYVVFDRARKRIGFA

This assay concerns the target soluble human BACE1 catalytic domain (Homo sapiens (Human), UniProt P56817). Kind of assay: BACE1 HTRF FRET Assay. Format: biochemical. Particulars: calculated from IC50 using the Cheng-Prusoff equation; read-out: BACE-1 Ki. From the text:
Na^+-Acetate pH 5.0; 1% Brij-35; Glycerol; Dimethyl Sulfoxide (DMSO); Recombinant human soluble BACE1 catalytic domain (>95% pure); APP Swedish mutant peptide substrate (QSY7-APP^swe-Eu): QSY7-[…]-Europium-amide.
A homogeneous time-resolved FRET assay was used to determine IC50 values for inhibitors of the soluble human BACE1 catalytic domain. This assay monitored the increase of 620 nm fluorescence that resulted from BACE1 cleavage of an APPswedish APP^swe mutant peptide FRET substrate (QSY7-[…]-Europium-amide). This substrate contained an N-terminal QSY7 moiety that served as a quencher of the C-terminal Europium fluorophore (620 nm Em). In the absence of enzyme activity, 620 nm fluorescence was low in the assay and increased linearly over 3 hours in the presence of uninhibited BACE1 enzyme. Inhibition of BACE1 cleavage of the QSY7-APP^swe-Eu substrate by inhibitors was manifested as a suppression of 620 nm fluorescence.
Reactions were initiated by addition of 10 μl of 600 nM QSY7-APP^swe-Eu substrate (200 nM final) to give a final reaction volume of 30 μl in a 384 well Nunc HTRF plate. The reactions were incubated at 30° C. for 1.5 hours. The 620 nm fluorescence was then read on a Rubystar HTRF plate reader (BMG Labtechnologies) using a 50 […]s delay followed by a 400 millisecond acquisition time window. […]

Structures are written as SMILES.

On to `COc1cccc(N2CC3C(c4ccccc4)(C2)NC(=N)N(C)S3(=O)=O)n1` (racemic) [Ex. 14], for which the Ki is 86 nM.
Turning to `COc1nc(N2CC3C(c4ccccc4)(C2)NC(=N)N(C)S3(=O)=O)nc(C2CC2)c1F` (racemic) [Ex. 16], the Ki was 42 nM.
